The values that follow come from patent US10266537B2, “3-acetylenyl-pyrazole-pyrimidine derivative, and preparation method therefor and uses thereof” (Si Chuan University, priority 2015, dated 2019).

The chains behind the UniProt entries cited, without tags or fusion partners. Residues count along the entry.
UniProt P12931, 1-530 limits assumed: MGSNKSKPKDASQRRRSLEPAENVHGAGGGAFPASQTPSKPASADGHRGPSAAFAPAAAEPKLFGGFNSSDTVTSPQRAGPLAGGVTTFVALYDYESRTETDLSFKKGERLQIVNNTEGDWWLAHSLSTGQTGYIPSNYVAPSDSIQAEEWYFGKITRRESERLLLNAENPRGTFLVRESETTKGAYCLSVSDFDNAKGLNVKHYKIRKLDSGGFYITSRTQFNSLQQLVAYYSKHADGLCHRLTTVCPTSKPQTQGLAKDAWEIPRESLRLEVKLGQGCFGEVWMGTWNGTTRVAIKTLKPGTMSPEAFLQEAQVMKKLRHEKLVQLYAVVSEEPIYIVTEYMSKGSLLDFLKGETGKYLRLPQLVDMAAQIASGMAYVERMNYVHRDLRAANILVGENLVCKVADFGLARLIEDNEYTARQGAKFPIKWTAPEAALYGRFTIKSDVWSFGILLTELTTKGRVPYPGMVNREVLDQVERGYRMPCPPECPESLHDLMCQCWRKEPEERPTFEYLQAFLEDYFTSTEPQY

The test system of assay [1] is MDA-MB-435. Briefly: Cell proliferation inhibition assay (MTT). Format: cell-based, human. The settings on record: read-out: Proliferative inhibitory activity MDA-MB-435 (IC50 class), 72 hours.
Assay [2] has as its system MDA-MB-231. Briefly: Cell proliferation inhibition assay (MTT). Format: cell-based, human. Particulars: read-out: Proliferative inhibitory activity MDA-MB-231 (IC50 class), 72 hours.
The target in assay [3] is c-Src(1-530) (Homo sapiens (Human), UniProt P12931). Briefly: Kinase inhibition assay (KinaseProfiler, 33P-ATP). Particulars: ATP at Km.

One may read the IC50 as the midpoint of a concentration-inhibition curve. As to `Cc1ccc(NC(=O)Nc2cccc(C(F)(F)F)c2)cc1C#Cc1nn(C(C)C)c2ncnc(N)c12`, the IC50 in assay [1] is more than 1000 nM; in assay [2], 100 to 500 nM; in assay [3], 20 nM.

On to `Cc1ccc(C(=O)Nc2ccc(CN3CCN(C)CC3)c(C(F)(F)F)c2)cc1C#Cc1nn(C(C)C)c2ncnc(N)c12`, for which the IC50 was less than 100 nM in assay [1], less than 100 nM in assay [2] and 2 nM in assay [3].
